Experimental data reported in patent publication US6518301B1, “Estrogen receptor-β ligands” (AstraZeneca AB, priority 1999, dated 2003).

By UniProt entry, the sequences of proteins in these tests, tags left out. Residues count along the entry.
UniProt Q92731, 54-530 limits assumed: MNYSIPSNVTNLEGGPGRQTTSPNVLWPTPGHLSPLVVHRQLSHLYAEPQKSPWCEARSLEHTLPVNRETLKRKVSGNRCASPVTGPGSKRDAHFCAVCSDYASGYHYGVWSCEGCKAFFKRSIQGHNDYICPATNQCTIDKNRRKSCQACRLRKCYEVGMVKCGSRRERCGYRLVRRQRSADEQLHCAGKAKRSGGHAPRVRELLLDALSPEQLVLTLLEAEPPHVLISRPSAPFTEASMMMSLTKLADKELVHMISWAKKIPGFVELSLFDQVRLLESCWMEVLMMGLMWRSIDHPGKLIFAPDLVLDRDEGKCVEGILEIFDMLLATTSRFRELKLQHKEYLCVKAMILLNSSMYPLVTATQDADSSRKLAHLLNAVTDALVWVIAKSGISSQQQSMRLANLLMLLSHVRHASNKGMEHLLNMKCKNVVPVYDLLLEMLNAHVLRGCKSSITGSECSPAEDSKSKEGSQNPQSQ
UniProt P03372, whole entry: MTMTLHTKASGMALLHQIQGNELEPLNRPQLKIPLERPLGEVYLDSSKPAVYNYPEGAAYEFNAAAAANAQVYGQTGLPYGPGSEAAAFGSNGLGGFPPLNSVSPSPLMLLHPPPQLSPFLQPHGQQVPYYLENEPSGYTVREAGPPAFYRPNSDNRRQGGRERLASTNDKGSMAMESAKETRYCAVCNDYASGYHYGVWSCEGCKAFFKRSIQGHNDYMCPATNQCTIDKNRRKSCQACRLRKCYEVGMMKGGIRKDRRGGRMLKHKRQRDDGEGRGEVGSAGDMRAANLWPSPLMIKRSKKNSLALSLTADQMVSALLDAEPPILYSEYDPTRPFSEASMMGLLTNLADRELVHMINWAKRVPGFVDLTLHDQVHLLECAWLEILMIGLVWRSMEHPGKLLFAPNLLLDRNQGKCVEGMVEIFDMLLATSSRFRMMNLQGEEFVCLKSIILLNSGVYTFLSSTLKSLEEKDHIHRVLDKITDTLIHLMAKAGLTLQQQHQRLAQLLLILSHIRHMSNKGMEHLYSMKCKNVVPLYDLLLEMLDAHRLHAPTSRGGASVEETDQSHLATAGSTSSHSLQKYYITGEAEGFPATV

How the values were obtained:
[1] = target: ER-β (Gen Bank Accession #X99101) (Homo sapiens, UniProt Q92731); assay: Estrogen receptor binding, competition with [125I]-estradiol, ER-β; settings: read-out: ER-β Ki nM; competition with 150 pM [125I]-estradiol; receptor-programmed reticulocyte lysate; overnight at 4° C.; Cheng-Prushoff from IC50
[2] = target: ER-α (Gen Bank Accession #M12674) (Homo sapiens, UniProt P03372); assay: Estrogen receptor binding, competition with [125I]-estradiol, ER-α; settings: read-out: ER-α Ki nM; competition with 150 pM [125I]-estradiol; receptor-programmed reticulocyte lysate; overnight at 4° C.; Cheng-Prushoff from IC50

Row | Ki [1] [nM] | Ki [2] [nM] | Structure (SMILES)
1 | 104 | > 3000 | O=c1oc2c(O)cccc2cc1-c1ccc(O)cc1
2 | 108 | > 3000 | O=c1oc2cc(O)ccc2cc1-c1cccs1
3 | 116 | – | O=C1c2ccc(O)cc2CCC1c1cccc(Br)c1 (stereo not drawn)
4 | 118 | – | CC(C)Oc1ccc(-c2c(C(F)(F)F)oc3cc(O)ccc3c2=O)cc1
